## Ab-14 heavy chain CDR variants: yeast mating affinities

Data: MIT Lincoln Laboratory AlphaSeq set, Engelhart et al. 2022, doi:10.1038/s41597-022-01779-4, as distributed in FLAb.

Binding partner: SARS-CoV-2 spike HR2 peptide, sequence PDVDLGDISGINAS.

Parent scFv Ab-14: VH joined to VL by a (GGGGS)3 linker. Changes lie in the heavy chain CDRs alone.
VH: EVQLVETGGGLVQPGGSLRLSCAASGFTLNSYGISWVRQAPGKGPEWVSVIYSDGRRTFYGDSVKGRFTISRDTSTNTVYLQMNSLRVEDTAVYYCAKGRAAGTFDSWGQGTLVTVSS
VL: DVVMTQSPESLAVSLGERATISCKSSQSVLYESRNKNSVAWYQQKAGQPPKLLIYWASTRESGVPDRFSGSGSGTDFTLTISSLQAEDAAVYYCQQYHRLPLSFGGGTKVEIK

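The parent was found by panning a naive human phage display library on the peptide. The library (AAYL49) carries one to three amino acid substitutions per variant, with no insertions or deletions. Affinity was read by AlphaSeq, a pooled yeast mating assay with surface-displayed partners. Mating (16 h, 30 °C) was followed by selection of diploids and sequencing of their barcodes. A regression on co-assayed BCL2-family reference pairs converts the normalised counts of each replicate to an apparent Kd. The assay was run in three technical replicates.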

The whole VH of each variant is written out.
Scale: log10 of Kd in nM, estimated from mating counts; low values are strong binders.
The mean shown is taken over the replicates in which the pair was detected.
Where no diploid with the target was found in that replicate, the entry reads "n.d.": below detection, most likely a poor binder, though not proof of it.
Empty control strains, which show no peptide, gave a signal in 15% of pairings with library AAYL49; the median was 4.06 and 95% of these signals were weaker than 2.83. No background was subtracted. The control count says in how many pairings with the empty strains this scFv gave a signal, with their mean in brackets.

| VH | replicates, log10 nM | mean log10 Kd (nM) | signal with controls |
|---|---|---|---|
| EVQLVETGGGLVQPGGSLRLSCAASGFTLNSYGISWVRQAPGKGPEWVSVSYSDGRRTFYGDSVKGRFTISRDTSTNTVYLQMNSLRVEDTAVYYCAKGRAAGTEDSWGQGTLVTVSS | n.d. 4.46 5.91 | 5.19 | 4 of 9 (4.94) |
| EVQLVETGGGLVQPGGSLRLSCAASGFTLNSYGISWVRQAPGKGPEWVSVIYSDGRRTFYCDSVKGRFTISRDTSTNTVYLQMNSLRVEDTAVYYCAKGRAAGRLDSWGQGTLVTVSS | 4.56 n.d. n.d. | 4.56 | 1 of 9 (4.71) |
| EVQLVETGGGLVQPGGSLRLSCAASGFTLNSYIISWVRQAPGKGPEWVSVIYSDGRRTFYGDSVKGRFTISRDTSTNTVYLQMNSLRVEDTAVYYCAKLRLAGTFDSWGQGTLVTVSS | 2.15 1.67 1.81 | 1.87 | 3 of 9 (4.91) |
| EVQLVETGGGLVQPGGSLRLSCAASGFTLNSYGISWVRQAPGKGPEWVSVIYSDGRRTFYGDSVVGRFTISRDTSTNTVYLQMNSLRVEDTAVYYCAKGRAYGCFDSWGQGTLVTVSS | n.d. 3.13 4.74 | 3.93 | 3 of 9 (4.08) |
| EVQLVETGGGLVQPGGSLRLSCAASGFTLNSYGISWVRQAPGKGPEWVSVIYSLGHRTFYGDSVKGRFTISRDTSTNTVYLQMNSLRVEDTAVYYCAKGRVAGTFDSWGQGTLVTVSS | n.d. n.d. n.d. | n.d. | 0 of 9 |
| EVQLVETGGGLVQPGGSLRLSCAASGQTLPSYGISWVRQAPGKGPEWVSVIYSDGRRTFYGDSVKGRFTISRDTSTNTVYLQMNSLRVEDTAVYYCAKGRAAGYFDSWGQGTLVTVSS | n.d. n.d. n.d. | n.d. | 3 of 9 (4.46) |
| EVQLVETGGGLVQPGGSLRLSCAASGFTLNSYGISWVRQAPGKGPEWVSVIMSDGWRYFYGDSVKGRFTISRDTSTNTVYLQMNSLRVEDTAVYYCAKGRAAGTFDSWGQGTLVTVSS | n.d. n.d. n.d. | n.d. | 0 of 9 |
| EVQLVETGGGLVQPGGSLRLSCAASCFTLNSYGISWVRQAPGKGPEWVSVIYHDGRRTFYGDSVYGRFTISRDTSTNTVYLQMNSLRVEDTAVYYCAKGRAAGTFDSWGQGTLVTVSS | n.d. n.d. n.d. | n.d. | 0 of 9 |
| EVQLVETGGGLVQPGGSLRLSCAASGGTLNGYGISWVRQAPGKGPEWVSVIYSDGRRTFSGDSVKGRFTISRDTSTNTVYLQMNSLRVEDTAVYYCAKGRAAGTFDSWGQGTLVTVSS | n.d. n.d. n.d. | n.d. | 5 of 9 (3.65) |
| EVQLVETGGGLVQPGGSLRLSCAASGFTLNSYGISWVRQAPGKGPEWVSVIYSWGRRTFYGDSVKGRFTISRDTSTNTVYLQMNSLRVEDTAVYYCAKGRCAGPFDSWGQGTLVTVSS | 3.99 4.31 n.d. | 4.15 | 0 of 9 |
| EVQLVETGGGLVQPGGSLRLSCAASGFTLNSYGISWVRQAPGKGPEWVSVIYADGRRTFYGRSVKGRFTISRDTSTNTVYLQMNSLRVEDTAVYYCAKGRLAGTFDSWGQGTLVTVSS | 1.26 1.29 1.41 | 1.32 | 2 of 9 (5.64) |
| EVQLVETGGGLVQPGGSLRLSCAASGFTLNSYGISWVRQAPGKGPEWVSVICPDGRRTFYGDSVKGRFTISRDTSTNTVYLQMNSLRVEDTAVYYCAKGRAAVTFDSWGQGTLVTVSS | n.d. n.d. n.d. | n.d. | 0 of 9 |
| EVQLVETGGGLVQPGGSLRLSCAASGFTLNSYGYSWVRQAPGKGPEWVSVIYSDGQRTFYGDSVKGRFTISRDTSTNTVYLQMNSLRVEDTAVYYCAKGIAAGTFDSWGQGTLVTVSS | n.d. 3.88 n.d. | 3.88 | 1 of 9 (4.40) |
| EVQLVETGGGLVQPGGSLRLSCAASGFTLNSYGISWVRQAPGKGPEWVSVIYSDGRRGFYGNSVKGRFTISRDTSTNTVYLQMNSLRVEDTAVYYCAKGRCAGTFDSWGQGTLVTVSS | n.d. 2.71 n.d. | 2.71 | 1 of 9 (3.20) |
| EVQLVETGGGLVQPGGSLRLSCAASGFWLNSYGASWVRQAPGKGPEWVSVIYSDRRRTFYGDSVKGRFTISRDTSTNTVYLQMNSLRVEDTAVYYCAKGRAAGTFDSWGQGTLVTVSS | n.d. n.d. n.d. | n.d. | 1 of 9 (3.63) |
| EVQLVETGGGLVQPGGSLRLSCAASGFTLNSYGRSWVRQAPGKGPEWVSVIYSDGRRCFMGDSVKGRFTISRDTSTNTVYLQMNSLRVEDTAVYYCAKGRAAGTFDSWGQGTLVTVSS | n.d. n.d. 2.87 | 2.87 | 1 of 9 (4.84) |
| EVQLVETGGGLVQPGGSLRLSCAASGFTLNSYGISWVRQAPGKGPEWVSVIYSDGARTFATDSVKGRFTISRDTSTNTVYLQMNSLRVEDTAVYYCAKGRAAGTFDSWGQGTLVTVSS | 2.00 2.06 1.93 | 1.99 | 2 of 9 (4.47) |
| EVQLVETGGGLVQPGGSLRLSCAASGFTLNLYGISWVRQAPGKGPEWVSVIYSDGRRTFYGWSVYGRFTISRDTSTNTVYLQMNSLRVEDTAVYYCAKGRAAGTFDSWGQGTLVTVSS | n.d. n.d. n.d. | n.d. | 4 of 9 (4.03) |
| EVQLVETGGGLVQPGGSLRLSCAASGFTLNSTGISWVRQAPGKGPEWVSVIYSDGRRESYGDSVKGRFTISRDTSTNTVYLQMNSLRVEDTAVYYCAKGRAAGTFDSWGQGTLVTVSS | 3.94 n.d. 3.70 | 3.82 | 1 of 9 (6.17) |

Repeated from above, the 2 best binders with a signal in all replicates:

VH	replicates, log10 nM	mean log10 Kd (nM)	signal with controls
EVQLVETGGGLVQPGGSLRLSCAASGFTLNSYGISWVRQAPGKGPEWVSVIYADGRRTFYGRSVKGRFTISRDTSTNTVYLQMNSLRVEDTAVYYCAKGRLAGTFDSWGQGTLVTVSS	1.26 1.29 1.41	1.32	2 of 9 (5.64)
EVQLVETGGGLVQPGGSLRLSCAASGFTLNSYIISWVRQAPGKGPEWVSVIYSDGRRTFYGDSVKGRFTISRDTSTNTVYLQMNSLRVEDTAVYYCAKLRLAGTFDSWGQGTLVTVSS	2.15 1.67 1.81	1.87	3 of 9 (4.91)

For reference, the parent read 0.65 as the reference entry and 4.11 (one replicate of three) as a member of this library.